Columns and labels:
[1] = molecular target: Melanocyte-stimulating hormone receptor (Mus musculus) (UniProt Q01727); assay: Agonist activity at mouse MC1R expressed in HEK293 cells assessed as induction of cAMP level at 100 uM incubated for 2 hr by alphaScreen assay relative to NDP-MSH; type: functional, cell-based
[2] = molecular target: Melanocortin receptor 4 (Mus musculus) (UniProt P56450); assay: Agonist activity at mouse MC4R expressed in HEK293 cells assessed as induction of cAMP level at 100 uM incubated for 2 hr by alphaScreen assay relative to control; type: functional, cell-based

The chains behind the UniProt entries cited, without tags or fusion partners. Where a name states a change or a piece, a line headed by the entry shows the natural chain unless it says otherwise.
UniProt Q01727: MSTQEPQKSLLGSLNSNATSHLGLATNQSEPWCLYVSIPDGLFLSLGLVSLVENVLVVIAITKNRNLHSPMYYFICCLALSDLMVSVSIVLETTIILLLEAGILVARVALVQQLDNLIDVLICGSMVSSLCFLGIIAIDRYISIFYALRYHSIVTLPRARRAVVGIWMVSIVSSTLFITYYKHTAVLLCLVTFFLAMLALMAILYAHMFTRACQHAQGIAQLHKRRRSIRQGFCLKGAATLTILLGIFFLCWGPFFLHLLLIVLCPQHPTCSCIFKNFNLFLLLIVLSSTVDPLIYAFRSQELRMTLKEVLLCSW
UniProt P56450, whole entry: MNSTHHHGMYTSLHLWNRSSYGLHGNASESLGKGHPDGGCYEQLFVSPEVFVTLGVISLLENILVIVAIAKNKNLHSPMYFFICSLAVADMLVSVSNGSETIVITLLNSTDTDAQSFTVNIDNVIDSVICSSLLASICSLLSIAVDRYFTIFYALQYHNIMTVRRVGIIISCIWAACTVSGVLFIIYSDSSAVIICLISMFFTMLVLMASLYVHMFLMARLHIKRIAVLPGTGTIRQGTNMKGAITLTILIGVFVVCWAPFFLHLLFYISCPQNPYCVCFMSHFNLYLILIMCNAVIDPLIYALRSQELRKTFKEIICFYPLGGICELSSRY

## CC(=O)N[C@H](Cc1ccc(I)cc1)C(=O)N[C@@H](CCCNC(=N)N)C(=O)N[C@@H](Cc1ccc2ccccc2c1)C(=O)N[C@@H](CCCNC(=N)N)C(N)=O
[1]
  Activity: 25%
[2]
  Activity: 25%

From ChEMBL document CHEMBL4828766, “Functional Mixture-Based Positional Scan Identifies a Library of Antagonist Tetrapeptide Sequences (LAtTeS) with Nanomolar Potency for the Melanocortin-4 Receptor and Equipotent with the Endogenous AGRP(86-132) Antagonist” (J Med Chem, 2021)
